This test in a line: In vitro effective concentration tested on HEK293 cells co-transfected with ferret Dopamine receptor D2 using FLIPR assay.

Structures are written as SMILES.

For `CN1CCc2cccc3c2[C@H]1Cc1ccc(O)c(O)c1-3` [APOKYN], the EC50 turned out to be 1.8 nM.

Usually EC50 stands for the midpoint of the concentration-response curve. The low end stands for greater potency, the high end for weaker potency.

The values above are taken from BindingDB's records for doi:10.1021/jm030505a (Abbott Laboratories, 2004).
